Reference: PMC9206510, “4′-Fluorouridine is an oral antiviral that blocks respiratory syncytial virus and SARS-CoV-2 replication” (Science (New York, N.y.), 2021)

Experiments:
Type in all cases: cell-based, respiratory syncytial virus
[1] = test system: recRSV-A2line19F-[FireSMASh]; conditions: 10 μM 4′-FlU; not reversed by purines
[2] = test system: recRSV-A2line19F-[FireSMASh]; assay: microbe, parasite or virus in culture
[3] = test system: recRSV-A2line19F-[FireSMASh]; assay: recRSV-A2line19F-[FireSMASh] dose response inhibition on primary HAE cells

O=c1ccn([C@@H]2O[C@](F)(CO)[C@@H](O)[C@H]2O)c(=O)[nH]1 [4′-FlU, 4′-fluorouridine]
antiviral effect on addition of excess exogenous pyrimidines (cytidine and uridine) [1]: dose-dependently reversed
antiviral efficacy by confocal microscopy [2]: near-sterilizing antiviral efficacy
EC50 ([2]; human respiratory syncytial virus, read-out: EC50, apical virus shedding): 55 nM
selectivity index (SI = EC50/CC50) ([3]; primary HAE cells, RSV): ≥ 1877
increased anti-RSV potency relative to that on HEp-2 cells ([3]; primary HAE from two donors): ≥ 17 fold
